Experimental data published in US20160039903A1 (Stanford University, published 2016).

Chains of the proteins cited; added tags and fusions are not shown. A line that says so, or that is headed by a name, gives the form on record, which may keep a tag or linker.
human PD-L1 on cells, one chain, as listed by the source limits assumed: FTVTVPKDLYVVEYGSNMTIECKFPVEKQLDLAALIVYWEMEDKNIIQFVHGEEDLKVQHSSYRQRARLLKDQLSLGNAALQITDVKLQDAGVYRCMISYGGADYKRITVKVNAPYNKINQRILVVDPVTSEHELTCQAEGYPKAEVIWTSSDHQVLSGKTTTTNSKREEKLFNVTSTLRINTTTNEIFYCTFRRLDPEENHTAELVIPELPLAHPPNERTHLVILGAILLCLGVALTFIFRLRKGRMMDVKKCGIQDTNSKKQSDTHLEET

B1: G2 4-3 (designed binder)
PD-1 variant IgV domain: DSPDRPWNPPTFSPALLVVTEGDNATFTCSFSNTSESFHVIWHLESPSGQTDTLAAFPEDRSQPGQDARFRVTQLPNGRDFHMSVVRARRNDSGTYVCGVISLAPKIQIKESLRAELRVTER
notes: also called Generation 2, clone 4-3
B2: DOTA-HAC (HAC-V N91C conjugated with maleimido-mono-amide-DOTA) (designed binder)
chain: DSPDRPWNPPTFSPALLVVTEGDNATFTCSFSNTSESFHVVWHRESPSGQTDTLAAFPEDRSQPGQDARFRVTQLPNGRDFHMSVVRARRCDSGTYVCGVISLAPKIQIKESLRAELRVTERHHHHHHHH
modifications: maleimido-mono-amide-DOTA on Cys 91 (N91C)
notes: also called HAC-DOTA
B3: HAC-I PD-1 (High affinity consensus with isoleucine at position 41) (designed binder)
chain: B2 chain with V41I, C91N
notes: Engineered variant of the human PD-1 IgV domain; monomeric; also called HAC-PD-1

Experiments:
[1] = biological target: T1, recombinant biotinylated human PD-L1 ectodomain (IgV and IgC domains, […]) (human, enzymatically biotinylated (BirA) on the biotin acceptor peptide); assay: surface plasmon resonance, biotinylated hPD-L1 immobilized on a streptavidin chip; column head 'PD-L1 affinity'
T1 construct: also called biotinylated hPD-L1; biotinylated PD-L1; not shown: carboxy-terminal 8x histidine tag

[2] = biological target: T1, recombinant biotinylated human PD-L1 …; assay: as above; remark: listed apart in the source
human PD-L1 on cells [3] = biological target: T2, human PD-L1 on cells (human); assay: competition flow cytometry on SK-MEL-28 cells; probe: 100 nM hPD-1/streptavidin-Alexa Fluor 647 tetramer
T2 construct: also called hPD-L1; PD-L1 on IFNγ-induced SK-MEL-28 (SKMEL28) cells

human PD-L1 on cells [4] = biological target: T2, human PD-L1 on cells; assay: competition flow cytometry on SK-MEL-28 cells, 100 nM PD-1 tetramer as competitor
[5] = biological target: T1, recombinant biotinylated human PD-L1 …; assay: SPR, biotinylated PD-L1 on streptavidin chip

Binder	Kd [1]	Kd [2]	IC50 (read off the curve) (human PD-L1 on cells [3])	fold more potent antagonism than WT PD-1 (human PD-L1 on cells [4])	dissociation half-life [5]
B1	101 pM	101 pM	–	–	–
B2	–	–	~8000 pM	1200 fold	–
B3	107 pM	107 pM	–	–	42.4 min

Substitutions are numbered along the chain they refer to. Numbers in names are those of the source. Read-outs that look alike come from different tables or passages of the source.
